Values of other authors as cited in PMC13421293 (Thrombosis and Haemostasis, 2025).

Details: compared with healthy volunteers who received fentanyl; cited from earlier work

In the case of `COC(F)(F)C(Cl)Cl` [methoxyflurane], the “hemodynamic parameters such as stroke volume, cardiac output, or mean arterial pressure” value is listed as “no significant impact”.
